Data reported in BindingDB's records for doi:10.1073/pnas.71.5.1725 (1974).

Sequences of proteins named here, by UniProt entry; tags and fusion partners are left off.
UniProt P10980, whole entry: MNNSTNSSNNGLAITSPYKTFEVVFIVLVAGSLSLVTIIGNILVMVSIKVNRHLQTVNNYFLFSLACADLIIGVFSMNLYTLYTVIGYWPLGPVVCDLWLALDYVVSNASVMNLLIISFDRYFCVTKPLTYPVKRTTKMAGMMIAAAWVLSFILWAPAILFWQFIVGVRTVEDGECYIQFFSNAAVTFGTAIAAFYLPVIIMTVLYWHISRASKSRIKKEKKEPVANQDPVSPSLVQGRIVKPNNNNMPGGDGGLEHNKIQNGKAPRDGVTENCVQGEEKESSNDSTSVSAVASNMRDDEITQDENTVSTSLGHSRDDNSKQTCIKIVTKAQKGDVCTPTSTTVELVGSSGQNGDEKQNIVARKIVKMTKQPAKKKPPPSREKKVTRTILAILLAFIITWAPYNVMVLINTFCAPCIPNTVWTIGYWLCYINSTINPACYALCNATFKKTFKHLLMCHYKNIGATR

Target: Muscarinic acetylcholine receptor M2 (Rattus norvegicus, UniProt P10980)

With `CN1C2CC(OC(=O)C(CO)c3ccccc3)CC1C1OC12` (stereo unspecified) [3-hydroxy-2-phenyl-propionic acid 9-methyl-3-oxa-9-aza-tricyclo[3.3.1.0*2,4*]non-7-yl ester] the Ki was 0.8 nM.
